{
  "source": "patent US20250003968A1",
  "about": "“ACTIVITY-BASED CELL SORTING” (MASSACHUSETTS INSTITUTE OF TECHNOLOGY, priority 2021, published 2025)",
  "tested_on": "Eml4-Alk tumors",
  "assay": "Alectinib treatment in the Eml4-Alk model (lung histology)",
  "assay_type": "in vivo, mouse",
  "conditions": "two-week treatment course, 20 mg/kg daily oral gavage",
  "data": [
    {"smiles": "CCc1cc2c(cc1N1CCC(N3CCOCC3)CC1)C(C)(C)c1[nH]c3cc(C#N)ccc3c1C2=O", "note": "[alectinib]", "values": [
      {"measurement": "tumor regression", "value": "rapid and robust tumor regression"}
    ]}
  ]
}
